Measurements taken from patent US9586905B2, “Benzoazepine derivative and medical use thereof” (SANWA KAGAKU KENKYUSHO CO., LTD., priority 2012, dated 2017).

Chains of the proteins cited; added tags and fusions are not shown.
UniProt P08684, whole entry: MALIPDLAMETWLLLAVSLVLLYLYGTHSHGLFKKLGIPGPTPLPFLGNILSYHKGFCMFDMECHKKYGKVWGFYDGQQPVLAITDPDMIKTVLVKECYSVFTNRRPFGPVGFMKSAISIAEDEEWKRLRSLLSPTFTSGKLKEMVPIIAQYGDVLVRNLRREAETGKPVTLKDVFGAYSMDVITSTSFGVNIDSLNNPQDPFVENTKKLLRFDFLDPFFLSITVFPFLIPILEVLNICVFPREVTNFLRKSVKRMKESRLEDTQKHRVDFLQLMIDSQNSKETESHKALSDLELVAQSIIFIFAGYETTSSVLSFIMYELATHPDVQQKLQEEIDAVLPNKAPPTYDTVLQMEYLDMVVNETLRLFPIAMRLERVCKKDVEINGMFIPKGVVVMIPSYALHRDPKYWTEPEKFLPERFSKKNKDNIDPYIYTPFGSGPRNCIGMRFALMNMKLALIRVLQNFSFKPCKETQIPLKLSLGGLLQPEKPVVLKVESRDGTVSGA
UniProt P30518, whole entry: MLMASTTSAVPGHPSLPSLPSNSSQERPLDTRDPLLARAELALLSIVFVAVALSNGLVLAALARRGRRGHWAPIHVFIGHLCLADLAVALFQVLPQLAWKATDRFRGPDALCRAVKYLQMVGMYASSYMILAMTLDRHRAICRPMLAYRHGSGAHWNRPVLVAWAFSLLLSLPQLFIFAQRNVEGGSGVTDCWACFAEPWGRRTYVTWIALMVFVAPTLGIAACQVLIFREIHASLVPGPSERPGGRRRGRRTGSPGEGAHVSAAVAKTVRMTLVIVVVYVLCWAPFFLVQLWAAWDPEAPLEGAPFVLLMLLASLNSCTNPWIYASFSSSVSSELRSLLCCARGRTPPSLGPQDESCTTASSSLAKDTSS
UniProt P11712, whole entry: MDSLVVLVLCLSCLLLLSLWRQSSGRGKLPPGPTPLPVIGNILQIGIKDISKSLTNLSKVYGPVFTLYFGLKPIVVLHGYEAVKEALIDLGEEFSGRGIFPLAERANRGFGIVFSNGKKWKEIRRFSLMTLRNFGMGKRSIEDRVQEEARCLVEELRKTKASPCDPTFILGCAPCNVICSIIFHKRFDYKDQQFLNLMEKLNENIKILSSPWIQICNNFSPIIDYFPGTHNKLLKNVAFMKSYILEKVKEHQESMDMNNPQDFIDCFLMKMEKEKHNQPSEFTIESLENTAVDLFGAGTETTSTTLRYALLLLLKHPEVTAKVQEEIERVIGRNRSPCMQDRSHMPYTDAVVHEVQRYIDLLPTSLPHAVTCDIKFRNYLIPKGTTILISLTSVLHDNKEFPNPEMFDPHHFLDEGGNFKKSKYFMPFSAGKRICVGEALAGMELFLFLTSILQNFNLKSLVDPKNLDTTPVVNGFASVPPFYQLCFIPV

Columns and labels:
[1] = target: CYP3A4 (Homo sapiens, UniProt P08684); assay: Test of inhibition of cytochrome P450 (3A4) enzyme; conditions: read-out: IC50 CYP3A4; human liver microsome, midazolam 2.5 μM as substrate, test compound 0.21 to 50 μM, 37° C. 10 minutes
[2] = Rat PK test; conditions: male Sprague-Dawley rat, caudal vein administration, 0.5 mg/kg
[3] = target: human V2 receptor (Homo sapiens, UniProt P30518); assay: cAMP production test in V2 receptor expression cell; format: cell-based
Method: Pharmacological Test (1) Preparation of Human V2 Receptor Expression Cell
A DNA fragment containing a human V2 receptor code region was inserted into an expression vector of a vertebrate cell. The expression vector was genetically introduced into an animal cell to have the human V2 receptor express in the surface of the cell. Since the expression vector could express a neo gene which functions as a G418 resistance marker, it was cultured in a G418-containing medium, thereby selectively obtaining a human V2 receptor stable expression cell.
(2) cAMP Production Test in V2 Receptor Expression Cell
The human V2 receptor expression cell, which was prepared in the above described method, was recovered and resuspended into an incubation buffer (F-12 medium, 20 mM HEPES), and 5 μl of the cell was then divided into a 384-well plate with a density of 15,000 cells/well. 5 μl of a compound solution or an 8-AVP ((Arg^8)-vasopressin) solution, which was diluted with an assay buffer (F-12 medium, 20 mM HEPES, 1 mM IBMX), (total 10 μl/well) was added to each well (final concentration: 15,000 cells/well, 500 μM IBMX, 1% dimethyl sulfoxide). After incubation at room temperature for 30 minutes, a cAMP production amount was measured using a commercially available HTRF cAMP kit (Cisbio Inc.) according to the described protocol. Excel Fit was used in order to find EC50 and Emax values of the test compound. […]

[4] = target: CYP2C9 (Homo sapiens, UniProt P11712); assay: Test of inhibition of cytochrome P450 (2C9) enzyme; conditions: read-out: IC50 CYP2C9; human liver microsome, sulfaphenazole 10 μM as substrate, test compound 0.21 to 50 μM, 37° C. 10 minutes

Cc1ccn(-c2ccc(C(=O)N3CCC(C)(C(=O)N[C@@H](C)CO)Cc4ccccc43)c(C)c2)n1 (stereo partly shown)
IC50 [1]: > 50 µM | AUC ([2]; plasma): 360 ng·h/mL | Vdss ([2]; CLp multiplied by MRT): 1.22 L/kg | CLp ([2]; administration amount divided by AUC0-∞): 23.17 mL/min/kg | EC50 ([3]; human V2 receptor expression cell, 30 minutes at room temperature, HTRF cAMP kit): 0.0028 µM | Emax ([3]; maximum reaction by 8-AVP assumed to be 100%): 102% | IC50 [4]: > 50 µM
